We go through 1 compound from ChEMBL document CHEMBL1147724, “Synthesis and in vitro antileukemic activity of some new 1,3-(oxytetraethylenoxy)cyclotriphosphazene derivatives” (2006).

Type in all cases: functional
One assay concerns HL-60. Nature of the assay: Antiproliferative activity against human HL60 cell line by MTT assay at 4 ug/ml. (Formazan colour is commonly taken as a measure of viable cells.)
For the next assay, the system named is L1210. Briefly: Antiproliferative activity against mouse L1210 cell line by MTT assay at 4 ug/ml.
For another assay, the system named is BALB/3T3. Nature of the assay: Antiproliferative activity against BALB/3T3 cell line by MTT assay at 4 ug/ml. Conditions: Mus musculus.
The next assay concerns MOLT-4. Nature of the assay: Antiproliferative activity against human MOLT4 cell line by MTT assay at 4 ug/ml.
Another assay concerns P388. Nature of the assay: Antiproliferative activity against mouse P388 cell line by MTT assay at 4 ug/ml.

The structures appear in SMILES notation. ≈ marks a conversion by molar mass, not a printed value. Calls of active or inactive are those of the source. No cut-off for these calls is given here.

On to `ClP1(Cl)=NP2(Cl)=NP(Cl)(=N1)OCCOCCOCCOCCO2` (stereo not given), for which the ID50 with HL-60 was 36.9 µg/mL (≈ 78.6 µM). Moreover, the ID50 entry in the assay on L1210, with BALB/3T3, with MOLT-4 and in the assay with P388 was “inactive” throughout.
